Test results reported in patent US20190084968A1, “FUMAGILLOL HETEROCYCLIC COMPOUNDS AND METHODS OF MAKING AND USING SAME” (Zafgen, Inc., priority 2015, published 2019).

Test system: embryo/fetal development in pregnant Sprague Dawley rats
Details: 6 mpk subcutaneously once every three days, Gestation Days 6-18, pregnant rats
Procedure: The objective of this study design was to evaluate the potential effects of disclosed compounds on embryo/fetal development when given subcutaneously to pregnant rats once every three days during the critical period of organogenesis (Gestation Days 6-18). Female, Sprague Dawley rats, approximately 10 weeks of age, time bred, were ordered from a certified vendor and housed individually housed in stainless steel cages suspended over flush pans, on a 12-hour light-dark cycle (0700-1900) at 20-26° C. and 30-70% humidity. Rats were fed a standard rodent chow and provided water ad libitum. Rats were received and housed in the facility for a period of approximately 1 to 2 days.
Compounds were formulated using 100% DMSO mixed in Sterile Water for Injection, resulting in 2% DMSO solution in water. […] Body weights was recorded for all animals on Gestation Days 5 (purpose of randomization), 6, 9, 12, 15, 18, and 20 (scheduled euthanasia). Food consumption by weight was recorded on Gestation Days 6, 9, 12, 15, 18, and 20 (scheduled termination).
At necropsy, the dams were examined visually for external abnormalities including palpable masses. The abdominal, thoracic, and cranial cavities and their contents were examined for abnormalities and findings will be recorded. […] For dead fetuses and late resorptions, crown-to-rump length and weight were recorded, if possible, and the fetus was discarded. […]

## CO[C@@H]1[C@H](OC(=O)N2CC(OC(=O)N3CCOCC3)C2)CC[C@]2(CO2)[C@H]1[C@@]1(C)O[C@@H]1CC=C(C)C [Example 71, 1-(((3R,4S,5S,6R)-5-methoxy-4-((2R,3R)-2-methyl-3-(3-methylbut-2-enyl)oxiran-2-yl)-1-oxaspiro[2.5]octan-6-yloxy)carbonyl)azetidin-3-yl morpholine-4-carboxylate formate]
  Rat Embryofetal @6 mpk: Negative

## CO[C@@H]1[C@H](OC(=O)N2CC(CCC3CCN(CC(F)F)CC3)C2)CC[C@]2(CO2)[C@H]1[C@@]1(C)O[C@@H]1CC=C(C)C [Example 91, (3R,4S,5S,6R)-5-methoxy-4-((2R,3R)-2-methyl-3-(3-methylbut-2-enyl)oxiran-2-yl)-1-oxaspiro[2.5]octan-6-yl 3-(2-(1-(2,2-difluoroethyl)piperidin-4-yl)ethyl)azetidine-1-carboxylate formate]
  Rat Embryofetal @6 mpk: Positive

Structures can show the parent of a compound that is named as a salt.
